Experimental findings from PubChem BioAssay AID493056 (National Center for Advancing Translational Sciences (NCATS), 2011) are described below.

Amino acid sequences for entries named in this document (tags omitted).
UniProt P34981, whole entry: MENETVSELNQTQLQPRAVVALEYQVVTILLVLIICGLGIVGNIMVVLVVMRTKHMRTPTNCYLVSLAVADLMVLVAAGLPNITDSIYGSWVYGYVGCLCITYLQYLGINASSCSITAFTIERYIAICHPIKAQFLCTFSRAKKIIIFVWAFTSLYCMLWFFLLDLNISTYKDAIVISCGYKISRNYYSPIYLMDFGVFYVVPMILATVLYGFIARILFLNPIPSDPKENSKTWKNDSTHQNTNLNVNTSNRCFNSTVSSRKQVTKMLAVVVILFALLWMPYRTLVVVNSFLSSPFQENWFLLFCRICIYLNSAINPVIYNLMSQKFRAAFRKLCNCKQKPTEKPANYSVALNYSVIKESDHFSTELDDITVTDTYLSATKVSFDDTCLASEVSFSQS

“And” between values parts separate entries of the source, which are not always exact repeats. Equal values may be shown once. The entries are a selection whose mix differs from that of the whole data set. Some tests of the compounds listed are not included; inactive here does not mean inactive elsewhere. The source made the active and inactive calls. No stated cut-off is given here; in the data, active means enhancement above about 30%; inactive means the rest.

For this experiment, the target named is Thyrotropin-releasing hormone receptor (Homo sapiens) (UniProt P34981). As to the kind of experiment: qHTS for Small Molecule Agonists and Allosteric Enhancers of Human TRH Receptor: Primary Screen for Enhancers. Further: 0% is about no effect. As to conditions: TRHR cells, fluo-8 calcium fluorescence, EC20 TRH enhancement; at 2 µM; active compounds read high. From the text:
NIH Chemical Genomics Center [NCGC] NIH Molecular Libraries Probe Centers Network [MLPCN] MLPCN Grant: MH089816-01 Assay Submitter (PI): Marvin Gershengorn This project aims to identify small drug-like molecules that activate (agonists) the thyrotropin releasing hormone (TRH) receptor (TRHR) or enhance its TRH-stimulated activity (allosteric enhancers). TRHR, a drug-accessible cell surface receptor expressed in specific brain regions, and its ligand TRH have been implicated in several central nervous system disorders, including depression and anxiety. Small molecule TRHR agonists or allosteric enhancers that are metabolically stable and able to cross the blood-brain barrier might serve as probes to elucidate the roles of brain TRH receptors in animal models, and might be valuable as lead compounds for the development of drugs to treat patients with central nervous system disorders. Upon TRHR-Gq activation in TRHR cells, intracellular calcium is released from stores in the endoplasmic reticulum. […] This primary screen measures compound-induced enhancement of an EC20 stimulation of the receptor by its native ligand.
For the HTS assay freshly prepared cells are plated at a density of 2000/well in 3 ul of complete DMEM medium containing 10% serum in 1536-well plates and cultured over night at 37 C in a humidified incubator with 5% CO2. The next day, 2 ul of a no wash calcium dye (ABD Bioquest) was added to the cells and plates were incubated at room temperature for 1 hour. For the assay, assay plates were loaded into the FDSS kinetic plate reader. A 10 cycle (1 second/cycle) baseline measurement is taken and then the FDSS online 1536 pintool delivers 23 nl of compound library (as well as TRH controls) to the plate. The plate is measured for kinetically at 1 cycle/sec for 180 seconds and is considered to be the agonist portion of the assay (eg, compounds which activate a positive calcium response during this portion are flagged as potential agonists). Following the 180 second read, 1 ul of either an EC20 (positive modulation assay) is delivered by an onboard pipette head. Measurements are taken kinetically for an additional 180 seconds. TRHR FDSS Screening Protocol 1. Reagent, 3 uL 2000 cells/well 1536 TC treated Black plate in media containing 10% FCS 2. Time, 18 hours, 33.5C 5% CO2 (cells grown at 37C) 3. Reagent, 2 uL ABD fluo-8 Ca dye 4. Time, 30 min-1.5hrs hours, Room temp (6 plates/batch) 5. Detector, EX 480/EM 530C, FDSS 10 cycles baseline (1sec/cycle) 6. Compound, 23 nL of stock solution from library 7. Detector, EX 480/EM 530C, FDSS 230 cycles (1sec/cycle) Agonist mode 8. Compound, 1 ul EC20 of TRH made up in HEPES HBSS, 10 nM final 9. Detector, EX 480/EM 530C, FDSS 100 cycles (1sec/cycle) Potentiator mode
Turning to `COc1cccc(C(=O)NCC2(N3CCCCC3)CCCCC2)c1`, the enhancement was inactive: 3.05%.
Next, `COc1ccc(Cl)cc1C(=O)NCC1(N(C)C)CCCCC1`: inactive: 8.11%; `O=C(NCC1(N2CCCCC2)CCCCC1)c1cccc(Cl)c1`: inactive: -8.6%.
Next, `CN(C)C1(CNC(=O)c2ccc(Br)cc2)CCCCC1`: inactive: 7.11%; `COc1cc(C(=O)NCC2(N(C)C)CCCCC2)c([N+](=O)[O-])cc1OC`: inactive: 2.15%; `Cc1cccc(C(=O)NCC2(N(C)C)CCCCC2)c1`: inactive: 13.4%.
Take `COc1cc(C(=O)NCC2(N(C)C)CCCCC2)cc(OC)c1OC`: the enhancement was inactive: 19%.
Next, `COc1ccc(Br)c(C(=O)NCC2(N3CCCCC3)CCCCC2)c1`: inactive: -4.43%.
In the case of `CC(C)Oc1ccc(C(=O)NCC2(N(C)C)CCCCC2)cc1` it was inactive: 4.47% and inactive: 4.92%; in that of `CN(C)c1cccc(C(=O)NCC2(N(C)C)CCCCC2)c1`, inactive: 0.0018%.
As to `COc1cccc(C(=O)NCC2(N3CCOCC3)CCCCC2)c1`, the enhancement is inactive: -5.91%.
Next, `O=C(OC1CN2CCC1CC2)C(CO)(c1ccccc1)c1ccccc1` (stereo not drawn): inactive: 7.64%; `CC(C)COc1ccc(C(=O)NCC2(N(C)C)CCCCC2)cc1`: inactive: 8%.
Next, `CN(C)C1(CNC(=O)c2cccc(Cl)c2)CCCCC1`: inactive: -2.38%; `CCN(CC)CC(C)C(C)OC(=O)C(O)(c1ccccc1)c1ccccc1` (stereo not drawn): inactive: -0.146%.
In the case of `COc1cc(SC)ccc1C(=O)NCC1(N(C)C)CCCCC1` it was inactive: 0.741%; in that of `CC(C)N1C(=O)CC2(CCN(CCOC(=O)C(O)(c3ccccc3)c3ccccc3)CC2)C1=O`, inactive: 1.62%; in that of `Cc1ccc(C(=O)NCC2(N3CCCCC3)CCCCC2)cc1`, inactive: -9%.
Turning to `CN(C)C1(CNC(=O)c2ccccc2F)CCCCC1`, the enhancement was inactive: -5.56%.
For the compound `O=C(NCC1(N2CCCCC2)CCCCC1)c1cc([N+](=O)[O-])ccc1Cl`, the enhancement is inactive: -7.83%.
Next, `CN1[C@@H]2CC[C@H]1CC(OC(=O)C(O)(c1ccccc1)c1ccccc1)C2` (stereo partly drawn): inactive: 6.2%; `C=CCN1CCN(CCOC(=O)C(O)(c2ccccc2)c2ccccc2)CC1`: inactive: 0.661%.
As to `O=C(NCC1(N2CCCCC2)CCCCC1)c1cc(F)c(F)cc1Cl`, the enhancement was inactive: -4.94%.
For `COc1ccc(C(=O)NCC2(N(C)C)CCCCC2)cc1`, the enhancement was inactive: 5.8%.
Take `CCOc1cccc(C(=O)NCC2(N(C)C)CCCCC2)c1`: the enhancement is inactive: 2.97%.
Next, `Cc1cc(C(=O)NCC2(N3CCCCC3)CCCCC2)ccc1[N+](=O)[O-]`: inactive: -6.14%; `CCN1CCCC(OC(=O)C2(O)c3ccccc3C=Cc3ccccc32)C1` (stereo not drawn): inactive: -5.55%.
For the compound `O=C(NCC1(N2CCCCC2)CCCCC1)c1cccc(Br)c1`, the enhancement is inactive: -9.03%.
Next, `CN(C)C1(CNC(=O)c2ccccc2[N+](=O)[O-])CCCCC1`: inactive: 0.416%; `Cc1ccccc1C(=O)NCC1(N2CCCCC2)CCCCC1`: inactive: -4.75%.
In the case of `CN(C)C1CCCC1OC(=O)C(O)(c1ccccc1)c1ccccc1` (stereo not drawn) it was inactive: -5.45%; in that of `CN(C)c1ccc(C(=O)NCC2(N(C)C)CCCCC2)cc1`, inactive: 7.35%.
Regarding `CCCCOc1ccccc1C(=O)NCC1(N(C)C)CCCCC1`, the enhancement is inactive: 4.93%.
